First the molecules themselves.
B1: α catalytic subunit of Pol III (enzyme)
chain: MSEPRFVHLRVHSDYSMIDGLAKTAPLVKKAAALGMPALAITDFTNLCGLVKFYGAGHGAGIKPIVGADFNVQCDLLGDELTHLTVLAANNTGYQNLTLLISKAYQRGYGAAGPIIDRDWLIELNEGLILLSGGRMGDVGRSLLRGNSALVDECVAFYEEHFPDRYFLELIRTGRPDEESYLHAAVELAEARGLPVVATNDVRFIDSSDFDAHEIRVAIHDGFTLDDPKRPRNYSPQQYMRSEEEMCELFADIPEALANTVEIAKRCNVTVRLGEYFLPQFPTGDMSTEDYLVKRAKEGLEERLAFLFPDEEERLKRRPEYDERLETELQVINQMGFPGYFLIVMEFIQWSKDNGVPVGPGRGSGAGSLVAYALKITDLDPLEFDLLFERFLNPERVSMPDFDVDFCMEKRDQVIEHVADMYGRDAVSQIITFGTMAAKAVIRDVGRVLGHPYGFVDRISKLIPPDPGMTLAKAFEAEPQLPEIYEADEEVKALIDMARKLEGVTRNAGKHAGGVVIAPTKITDFAPLYCDEEGKHPVTQFDKSDVEYAGLVKFDFLGLRTLTIINWALEMINKRRAKNGEPPLDIAAIPLDDKKSFDMLQRSETTAVFQLESRGMKDLIKRLQPDCFEDMIALVALFRPGPLQSGMVDNFIDRKHGREEISYPDVQWQHESLKPVLEPTYGIILYQEQVMQIAQVLSGYTLGGADMLRRAMGKKKPEEMAKQRSVFAEGAEKNGINAELAMKIFDLVEKFAGYGFNKSHSAAYALVSYQTLWLKAHYPAEFMAAVMTADMDNTEKVVGLVDECWRMGLKILPPDINSGLYHFHVNDDGEIVYGIGAIKGVGEGPIEAIIEARNKGGYFRELFDLCARTDTKKLNRRVLEKLIMSGAFDRLGPHRAALMNSLGDALKAADQHAKAEAIGQADMFGVLAEEPEQIEQSYASCQPWPEQVVLDGERETLGLYLTGHPINQYLKEIERYVGGVRLKDMHPTERGKVITAAGLVVAARVMVTKRGNRIGICTLDDRSGRLEVMLFTDALDKYQQLLEKDRILIVSGQVSFDDFSGGLKMTAREVMDIDEAREKYARGLAISLTDRQIDDQLLNRLRQSLEPHRSGTIPVHLYYQRADARARLRFGATWRVSPSDRLLNDLRGLIGSEQVELEFD
B3: his6-tagged β^+ homodimer (natural protein)
chain: MKFTVEREHLLKPLQQVSGPLGGRPTLPILGNLLLQVADGTLSLTGTDLEMEMVARVALVQPHEPGATTVPARKFFDICRGLPEGAEIAVQLEGERMLVRSGRSRFSLSTLPAADFPNLDDWQSEVEFTLPQATMKRLIEATQFSMAHQDVRYYLNGMLFETEGEELRTVATDGHRLAVCSMPIGQSLPSHSVIVPRKGVIELMRMLDGGDNPLRVQIGSNNIRAHVGDFIFTSKLVDGRFPDYRRVLPKNPDKHLEAGCDLLKQAFARAAILSNEKFRGVRLYVSENQLKITANNPEQEEAEEILDVTYSGAEMEIGFNVSYVLDVLNALKCENVRMMLTDSVSSVQIEDAASQSAAYVVMPMRL

Assay [1] deals with B3. The assay is described as follows: SPR. Background: SPR reads the build-up and loss of mass on a sensor chip optically.
For assay [2], the target named is T1, δ subunit of the DnaX clamp loader complex (E. coli, UniProt P28630 1-343).
T1 sequence: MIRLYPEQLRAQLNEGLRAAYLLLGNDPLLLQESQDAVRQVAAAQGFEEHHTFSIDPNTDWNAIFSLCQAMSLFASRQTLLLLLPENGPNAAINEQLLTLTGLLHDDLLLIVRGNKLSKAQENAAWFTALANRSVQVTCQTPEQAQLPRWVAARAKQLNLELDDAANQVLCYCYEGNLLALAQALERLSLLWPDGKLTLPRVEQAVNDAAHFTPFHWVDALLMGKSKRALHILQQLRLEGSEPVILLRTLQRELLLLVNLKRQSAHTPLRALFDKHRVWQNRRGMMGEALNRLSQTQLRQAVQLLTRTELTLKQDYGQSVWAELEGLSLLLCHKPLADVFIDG
Description: ITC.

The target of assay [3] is B1. Description: SPR.

In general, stoichiometry N refers to the number of molecules, sites or subunits per partner or assembly. On to B1, for which the “stoichiometry N” value in assay [1] amounted to 1.

B2: myc-tagged β^+ homodimer (natural protein)
chain: MKFTVEREHLLKPLQQVSGPLGGRPTLPILGNLLLQVADGTLSLTGTDLEMEMVARVALVQPHEPGATTVPARKFFDICRGLPEGAEIAVQLEGERMLVRSGRSRFSLSTLPAADFPNLDDWQSEVEFTLPQATMKRLIEATQFSMAHQDVRYYLNGMLFETEGEELRTVATDGHRLAVCSMPIGQSLPSHSVIVPRKGVIELMRMLDGGDNPLRVQIGSNNIRAHVGDFIFTSKLVDGRFPDYRRVLPKNPDKHLEAGCDLLKQAFARAAILSNEKFRGVRLYVSENQLKITANNPEQEEAEEILDVTYSGAEMEIGFNVSYVLDVLNALKCENVRMMLTDSVSSVQIEDAASQSAAYVVMPMRL
As for B2, in assay [2], the “KD of the first δ (sequential binding sites model)” value stood at 259 nM and the “KD of the second δ (sequential binding sites model)” value is 4000 nM.

One may read the Kd as the concentration at which binding is half-saturated. In general, koff refers to a measure of how fast the partners let go of each other. A lower koff goes with a long-lived complex. As a reminder, the kon is the second-order rate constant of association. In assay [3], B3 registered a Kd of 108 nM, a koff of 0.00726 s⁻¹ and a kon of 67500 M⁻¹ s⁻¹.
